# Source: PubChem BioAssay AID2501 (Southern Research Specialized Biocontainment Screening …, 2010)
# The list shows a part of the results, in another mix than the full data. The source made the active and inactive calls. The limit is not given here; nearly all actives have IC50 up to about 92 µM.
# Experiment: counter assay for TAg ATPase ADP read-out – biochemical, ADP-Hunter, fluorescence, counter-screen (AID 2501);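 also: purified T antigen ATPase; 0% = enzyme with vehicle and 100% = reference inhibitor wells; higher means more inhibition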
# Conditions: at 100 µM (top of the series)
row,SMILES,inhibition
1,Cc1c2non([O-])c-2c(C)[n+](=O)[n+]1[O-],inactive: -20.1%
